Results as given in publication PMC6979384, “Characterization of the plant homeodomain (PHD) reader family for their histone tail interactions” (Epigenetics & Chromatin, 2020).

Assays:
Test in all cases: Histone peptide microarray
Assay type in all cases: binding, human
BPTF (PB) = details: sheet "Array Heatmap"; GST-tagged BPTF (PB); arrays performed twice, total replicate number n = 4
Description: (§1) To more comprehensively define the histone interactions of the 31 PHD readers identified from the domain microarray analyses, we probed each on an alternate microarray platform containing a library of 293 synthetic histone peptides with single or combinatorial PTMs (Additional file 2: Figure S4 and Additional file 3: Table S2). […] In general, the 31 PHD fingers were confirmed to associate with the H3 tail with the same H3K4 methyl preferences as in the domain microarrays (Fig. 2; Additional file 3: Table S2). […] In addition, we confirmed the newly identified interactions observed with the domain microarrays for PHRF1 and TRIM66 (Fig. 2).
(§2) The 31 GST-tagged PHD readers identified in the PHD finger domain array were expressed and purified as previously. Histone peptide arrays and peptide pulldown assays were conducted as recently described (specifically, the optimized protocol from Petell et al. for the former).
(§3) Supplementary file 13072_2020_328_MOESM3_ESM.xlsx: Additional file 3: Table S2. Histone Peptide Microarray Results. Excel Tab Peptide List is a compiled list of the entire 293 histone peptide library with amino acid sequence ranges. Excel Tab Peptide Array Grid Map is a table representing the pattern in which peptides have been printed for the peptide microarray. Each number corresponds to the peptide number designated in Peptide List. Excel Tab Average Signals is a compiled set of binding data: chromatin reader at 0.5 μM vs. entire 293 peptide library. Data is presented as the average and standard deviation of 4 replicates. The average signals are colored to indicate signal intensity with green being strong and white being weak/low. […] Key: red= stronger relative binding; blue = weaker relative binding. Excel Tab Array info summary is a table summarizing the domains, sequence coverage, array signal range, and noise for each of the GST-tagged readers assayed on the peptide microarrays.

MLL5 = details: sheet "Array Heatmap"; GST-tagged MLL5; arrays performed twice, total replicate number n = 4
Description: as §1, §2, §3

AIRE (PP) = details: sheet "Array Heatmap"; GST-tagged AIRE (PP); arrays performed twice, total replicate number n = 4
Description: as §1, §2, §3

KDM5A (1) = details: sheet "Array Heatmap"; GST-tagged KDM5A (1); arrays performed twice, total replicate number n = 4
Description: as §1, §2, §3

CHD4 (PPCC) = details: sheet "Array Heatmap"; GST-tagged CHD4 (PPCC); arrays performed twice, total replicate number n = 4
Description: as §1, §2, §3

PHRF1 (RP) = details: sheet "Array Heatmap"; GST-tagged PHRF1 (RP); arrays performed twice, total replicate number n = 4
Description: as §1, §2, §3

DPF2 (PPC2W2) = details: sheet "Array Heatmap"; GST-tagged DPF2 (PPC2W2); arrays performed twice, total replicate number n = 4
Description: as §1, §2, §3

KDM5A (3) = details: sheet "Array Heatmap"; GST-tagged KDM5A (3); arrays performed twice, total replicate number n = 4
Description: as §1, §2, §3

ING3 = details: sheet "Array Heatmap"; GST-tagged ING3; arrays performed twice, total replicate number n = 4
Description: as §1, §2, §3

CHD5 (PCC) = details: sheet "Array Heatmap"; GST-tagged CHD5 (PCC); arrays performed twice, total replicate number n = 4
Description: as §1, §2, §3

PHF2 = details: sheet "Array Heatmap"; GST-tagged PHF2; arrays performed twice, total replicate number n = 4
Description: as §1, §2, §3

TRIM66 (PB) = details: sheet "Array Heatmap"; GST-tagged TRIM66 (PB); arrays performed twice, total replicate number n = 4
Description: as §1, §2, §3

TAF3 = details: sheet "Array Heatmap"; GST-tagged TAF3; arrays performed twice, total replicate number n = 4
Description: as §1, §2, §3

RAG2 = details: sheet "Array Heatmap"; GST-tagged RAG2; arrays performed twice, total replicate number n = 4
Description: as §1, §2, §3

ING5 = details: sheet "Array Heatmap"; GST-tagged ING5; arrays performed twice, total replicate number n = 4
Description: as §1, §2, §3

CHD5 (PPCC) = details: sheet "Array Heatmap"; GST-tagged CHD5 (PPCC); arrays performed twice, total replicate number n = 4
Description: as §1, §2, §3

H3K4me2 + K9me2: H3 1-15
Array Heatmap signal, BPTF (PB) (BPTF (PB)): 0.4073 | Array Heatmap signal, MLL5 (MLL5): 0.6156 | Array Heatmap signal, AIRE (PP) (AIRE (PP)): 0.4852 | Array Heatmap signal, KDM5A (1) (KDM5A (1)): 0.5461 | Array Heatmap signal, CHD4 (PPCC) (CHD4 (PPCC)): 0.6688 | Array Heatmap signal, PHRF1 (RP) (PHRF1 (RP)): 0.6456 | Array Heatmap signal, DPF2 (PPC2W2) (DPF2 (PPC2W2)): 0.808 | Array Heatmap signal, KDM5A (3) (KDM5A (3)): 0.665 | Array Heatmap signal, ING3 (ING3): 0.5755 | Array Heatmap signal, CHD5 (PCC) (CHD5 (PCC)): 0.8641 | Array Heatmap signal, PHF2 (PHF2): 0.6413 | Array Heatmap signal, TRIM66 (PB) (TRIM66 (PB)): 0.6606 | Array Heatmap signal, TAF3 (TAF3): 0.342 | Array Heatmap signal, RAG2 (RAG2): 0.3362 | Array Heatmap signal, ING5 (ING5): 0.4379 | Array Heatmap signal, CHD5 (PPCC) (CHD5 (PPCC)): 0.658
